Paper PMC12395388 (Regulatory toxicology and pharmacology : RTP, 2024)

How the values were obtained:
Details in all cases: 30 vs 60 min
[1] = system: Salmonella typhimurium TA100; experiment: Preincubation Ames test, strain TA100; assay type: cell-based
[2] = system: Salmonella typhimurium TA1535; experiment: Preincubation Ames test, strain TA1535; assay type: cell-based
[3] = system: Salmonella typhimurium TA98; experiment: Preincubation Ames test, strain TA98; assay type: cell-based
[4] = system: E. coli WP2 uvrA (pKM101); experiment: Preincubation Ames test, strain WP2 uvrA; assay type: cell-based, Escherichia coli

Measured: Effectiveness of time of preincubation for most effective S9

CCN(CC)N=O [SM-2, N,N-Diethylnitrous amide]
60min = 30min: all assays above
